US10668162B2, “Method for preparing cell targeting conjugates, and the complexes obtained” (priority 2012, dated 2020)

Tested on: A431 cells
Experiment: A431 cell viability (sulforhodamine B total cell number)
Format: cell-based
Settings: highest concentration of 7 μM, FIG. 5.3B
Experimental: A431 cells were cultured in Dulbecco's Modified Eagle's medium (DMEM, PAA, Pasching, Austria) containing 3.7 g/l sodium bicarbonate, 4.5 g/l 1-glucose, 2 mM 1-glutamine and supplemented with 7.5% (v/v) fetal bovine serum, penicillin (100 IU/ml), streptomycin (100 μg/ml), and amphotericin B (0.25 μg/ml) at 37° C. in a humidified atmosphere containing 5% CO2. 4000 cells/well were seeded into 96-well plates. After 24 hours, medium was replaced by fresh medium spiked with DOX-LCL-antibody diluted in PBS in final concentrations of 25 nM−6.7 μM at least in triplicate. To determine the total cell number, cellular proteins were precipitated by the addition of trichloroacetic acid to 4% after 1 day of growth. Cells were washed with water, dried at RT and stained with 0.4% sulforhodamine B in 1% acetic acid for 30 minutes. Excess dye was washed away with 1% acetic acid and cells were dried at RT. Bound dye was extracted with unbuffered 10 mM Tris for 15 minutes and OD values were measured at 510 nm with a Bio-Rad Novapath Microplate Reader (Bio-Rad Laboratories, Veenendaal, The Netherlands).

DOX-LCL-trastuzumab
effect on A431 cell viability compared to unmodified trastuzumab: significant effect
